System: H3K79 methylation
Experiment: Western blot of histone methylation in MDA-MB231
Assay type: cell-based, Human
Details: in words

**Q.** With `CC(C)N(CCCNC(=O)Nc1ccc(C(C)(C)C)cc1)CC1OC(n2cnc3c(N)ncnc32)C(O)C1O` (stereo not shown) [Compound 2, SYC-522] as the molecule, how does the “effect on H3K79 methylation” value read?
**A.** only inhibited H3K79 methylation
